Data reported in article PMC5055294 (PLoS ONE, 2016).

Key:
CCRL2 [1] = test: Binding and competition, [^125I]-CCL19 tracer, CCRL2; set-up: species or system human; conditions: CHO-K1 cells expressing CCRL2, 0.1 nM [^125I]-CCL19
CCRL2 [2] = conditions: ref [21],[22]; cited from earlier work
Source text: […]. CMKLR1 is coupled to the Gi/o family of G proteins and in cells ...

With CCL5: chemokine the “competition for binding of CCL19” value (CCRL2 [1]; excess unlabeled competitor (300nM), triplicates) was “did not competed for the binding of CCL19 to CCRL2”.
For CCL19: chemokine, the “binding to CCRL2” value (CCRL2 [2]) is given as “reported to bind CCL19 in the absence of signaling”.
With “radio-labelled CCL19: radio-labelled chemokine tracer [reference compound]” the “specific binding of radio-labelled CCL19” value (CCRL2 [1]) was “relatively weak compared to chemerin binding”.
